Test results from ChEMBL document CHEMBL5370605, “Discovery of Novel Fedratinib-Based HDAC/JAK/BRD4 Triple Inhibitors with Remarkable Antitumor Activity against Triple Negative Breast Cancer” (J Med Chem, 2023).
Calls of active or inactive are those of the source. The rule behind the calls is not given here.

Chains of the proteins cited; added tags and fusions are not shown. Lines headed by an entry give the natural chain unless they say otherwise; changes in a name come on top.
UniProt P17948, whole entry: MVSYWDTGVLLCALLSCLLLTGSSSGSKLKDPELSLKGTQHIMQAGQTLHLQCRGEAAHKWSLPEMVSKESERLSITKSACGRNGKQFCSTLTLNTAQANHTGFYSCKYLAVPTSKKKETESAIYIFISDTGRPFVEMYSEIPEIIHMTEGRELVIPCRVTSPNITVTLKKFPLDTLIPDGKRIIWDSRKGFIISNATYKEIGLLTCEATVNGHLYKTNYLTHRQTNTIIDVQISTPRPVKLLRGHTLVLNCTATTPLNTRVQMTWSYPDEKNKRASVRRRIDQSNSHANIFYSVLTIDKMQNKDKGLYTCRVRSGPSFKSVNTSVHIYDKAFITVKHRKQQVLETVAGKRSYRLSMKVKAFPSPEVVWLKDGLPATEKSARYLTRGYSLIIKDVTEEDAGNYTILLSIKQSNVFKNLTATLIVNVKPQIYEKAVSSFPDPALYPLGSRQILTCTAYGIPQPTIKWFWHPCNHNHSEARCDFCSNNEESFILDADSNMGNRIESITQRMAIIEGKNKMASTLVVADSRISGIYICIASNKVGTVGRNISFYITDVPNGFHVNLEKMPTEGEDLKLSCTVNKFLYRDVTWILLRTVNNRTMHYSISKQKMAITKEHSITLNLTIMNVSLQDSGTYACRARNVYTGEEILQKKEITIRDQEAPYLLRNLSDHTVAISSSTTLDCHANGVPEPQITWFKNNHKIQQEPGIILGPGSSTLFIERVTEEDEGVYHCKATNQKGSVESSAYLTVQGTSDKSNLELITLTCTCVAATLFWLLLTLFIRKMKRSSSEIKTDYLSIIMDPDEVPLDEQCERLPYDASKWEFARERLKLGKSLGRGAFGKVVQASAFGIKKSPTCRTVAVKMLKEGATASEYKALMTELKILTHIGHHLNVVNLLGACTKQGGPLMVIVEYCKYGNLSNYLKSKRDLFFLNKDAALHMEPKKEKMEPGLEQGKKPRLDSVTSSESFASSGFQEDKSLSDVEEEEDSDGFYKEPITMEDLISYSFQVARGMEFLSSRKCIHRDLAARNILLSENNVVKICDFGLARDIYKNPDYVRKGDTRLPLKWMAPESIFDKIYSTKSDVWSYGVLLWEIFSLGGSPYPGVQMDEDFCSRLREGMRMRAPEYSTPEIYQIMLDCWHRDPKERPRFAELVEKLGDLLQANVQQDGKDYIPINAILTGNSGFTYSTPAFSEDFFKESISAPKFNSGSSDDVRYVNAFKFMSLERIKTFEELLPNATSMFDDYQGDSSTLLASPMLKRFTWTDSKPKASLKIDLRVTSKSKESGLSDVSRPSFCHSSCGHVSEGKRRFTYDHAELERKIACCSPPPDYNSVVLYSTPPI
UniProt P09619, whole entry: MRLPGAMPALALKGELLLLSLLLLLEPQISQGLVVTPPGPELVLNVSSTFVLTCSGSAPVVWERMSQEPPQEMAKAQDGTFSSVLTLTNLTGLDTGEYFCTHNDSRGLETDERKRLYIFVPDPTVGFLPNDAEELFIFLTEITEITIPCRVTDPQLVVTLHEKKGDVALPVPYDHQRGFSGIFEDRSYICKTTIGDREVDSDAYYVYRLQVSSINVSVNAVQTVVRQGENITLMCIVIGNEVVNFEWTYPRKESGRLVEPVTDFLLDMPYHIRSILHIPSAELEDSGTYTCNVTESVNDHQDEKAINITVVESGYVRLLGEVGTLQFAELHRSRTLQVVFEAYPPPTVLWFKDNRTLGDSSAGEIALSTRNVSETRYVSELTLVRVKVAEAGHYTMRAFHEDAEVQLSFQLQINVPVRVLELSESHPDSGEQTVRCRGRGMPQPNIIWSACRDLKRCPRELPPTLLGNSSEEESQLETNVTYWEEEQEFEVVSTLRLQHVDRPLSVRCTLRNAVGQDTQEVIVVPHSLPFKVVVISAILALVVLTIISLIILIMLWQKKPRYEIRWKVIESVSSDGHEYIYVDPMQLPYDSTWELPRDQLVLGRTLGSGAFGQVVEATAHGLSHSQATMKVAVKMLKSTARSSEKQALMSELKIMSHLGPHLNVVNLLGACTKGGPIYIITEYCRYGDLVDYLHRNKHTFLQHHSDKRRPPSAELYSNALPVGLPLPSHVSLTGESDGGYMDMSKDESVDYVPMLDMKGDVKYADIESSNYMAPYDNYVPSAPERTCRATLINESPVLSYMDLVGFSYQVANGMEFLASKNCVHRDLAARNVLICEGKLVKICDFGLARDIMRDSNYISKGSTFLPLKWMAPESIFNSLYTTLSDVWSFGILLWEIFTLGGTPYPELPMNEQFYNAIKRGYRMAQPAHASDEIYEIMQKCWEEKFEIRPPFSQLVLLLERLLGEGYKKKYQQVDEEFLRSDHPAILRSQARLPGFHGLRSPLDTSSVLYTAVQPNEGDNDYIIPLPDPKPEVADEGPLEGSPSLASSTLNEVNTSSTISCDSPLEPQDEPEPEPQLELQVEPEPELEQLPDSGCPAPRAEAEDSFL
UniProt P10721, whole entry: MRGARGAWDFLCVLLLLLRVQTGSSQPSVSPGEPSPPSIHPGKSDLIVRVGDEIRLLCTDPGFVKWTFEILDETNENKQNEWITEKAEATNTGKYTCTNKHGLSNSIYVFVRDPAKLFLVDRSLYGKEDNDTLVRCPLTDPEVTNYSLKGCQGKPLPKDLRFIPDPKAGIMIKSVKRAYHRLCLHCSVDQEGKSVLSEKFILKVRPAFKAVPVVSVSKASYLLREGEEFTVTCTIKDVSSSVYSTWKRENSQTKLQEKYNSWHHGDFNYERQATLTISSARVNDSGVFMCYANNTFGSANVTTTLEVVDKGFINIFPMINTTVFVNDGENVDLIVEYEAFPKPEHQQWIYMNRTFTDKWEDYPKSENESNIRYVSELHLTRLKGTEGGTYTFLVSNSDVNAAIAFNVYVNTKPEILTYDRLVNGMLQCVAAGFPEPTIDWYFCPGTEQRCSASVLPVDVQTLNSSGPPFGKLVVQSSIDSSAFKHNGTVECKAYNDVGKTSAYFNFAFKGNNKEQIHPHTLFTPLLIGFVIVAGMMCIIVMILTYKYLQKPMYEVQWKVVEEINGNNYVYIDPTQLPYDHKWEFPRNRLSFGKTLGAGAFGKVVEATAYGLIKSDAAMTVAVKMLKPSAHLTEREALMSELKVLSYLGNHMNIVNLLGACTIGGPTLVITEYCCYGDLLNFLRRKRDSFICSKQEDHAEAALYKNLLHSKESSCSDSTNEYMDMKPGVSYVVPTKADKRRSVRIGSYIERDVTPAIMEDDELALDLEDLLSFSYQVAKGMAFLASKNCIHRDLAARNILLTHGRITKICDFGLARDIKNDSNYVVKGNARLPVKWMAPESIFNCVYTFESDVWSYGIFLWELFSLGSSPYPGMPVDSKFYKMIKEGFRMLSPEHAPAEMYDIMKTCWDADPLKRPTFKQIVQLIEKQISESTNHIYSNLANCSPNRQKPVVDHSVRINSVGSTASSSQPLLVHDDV
UniProt P11362, whole entry, looked up: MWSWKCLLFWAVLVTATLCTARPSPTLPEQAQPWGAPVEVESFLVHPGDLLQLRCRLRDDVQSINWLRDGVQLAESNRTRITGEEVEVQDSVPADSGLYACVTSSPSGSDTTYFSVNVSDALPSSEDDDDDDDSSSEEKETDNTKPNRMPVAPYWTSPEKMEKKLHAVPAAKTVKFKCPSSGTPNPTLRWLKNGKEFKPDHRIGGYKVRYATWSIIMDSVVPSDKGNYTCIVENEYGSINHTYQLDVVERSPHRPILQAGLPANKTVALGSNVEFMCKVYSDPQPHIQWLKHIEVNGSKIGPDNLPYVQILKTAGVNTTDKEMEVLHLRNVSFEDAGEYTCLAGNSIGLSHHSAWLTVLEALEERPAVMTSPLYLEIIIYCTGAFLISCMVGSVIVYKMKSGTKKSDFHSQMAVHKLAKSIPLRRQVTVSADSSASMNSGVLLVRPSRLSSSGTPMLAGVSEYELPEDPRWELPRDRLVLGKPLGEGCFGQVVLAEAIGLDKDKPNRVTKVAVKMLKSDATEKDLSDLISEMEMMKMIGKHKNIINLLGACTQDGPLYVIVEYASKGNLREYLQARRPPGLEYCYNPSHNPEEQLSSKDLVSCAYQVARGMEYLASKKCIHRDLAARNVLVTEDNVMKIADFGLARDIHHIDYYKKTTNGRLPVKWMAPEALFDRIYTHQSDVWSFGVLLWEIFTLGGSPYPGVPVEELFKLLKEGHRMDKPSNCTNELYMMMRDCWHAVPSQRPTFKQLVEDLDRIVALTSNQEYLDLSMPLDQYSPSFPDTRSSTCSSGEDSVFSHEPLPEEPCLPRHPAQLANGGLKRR
UniProt P16234: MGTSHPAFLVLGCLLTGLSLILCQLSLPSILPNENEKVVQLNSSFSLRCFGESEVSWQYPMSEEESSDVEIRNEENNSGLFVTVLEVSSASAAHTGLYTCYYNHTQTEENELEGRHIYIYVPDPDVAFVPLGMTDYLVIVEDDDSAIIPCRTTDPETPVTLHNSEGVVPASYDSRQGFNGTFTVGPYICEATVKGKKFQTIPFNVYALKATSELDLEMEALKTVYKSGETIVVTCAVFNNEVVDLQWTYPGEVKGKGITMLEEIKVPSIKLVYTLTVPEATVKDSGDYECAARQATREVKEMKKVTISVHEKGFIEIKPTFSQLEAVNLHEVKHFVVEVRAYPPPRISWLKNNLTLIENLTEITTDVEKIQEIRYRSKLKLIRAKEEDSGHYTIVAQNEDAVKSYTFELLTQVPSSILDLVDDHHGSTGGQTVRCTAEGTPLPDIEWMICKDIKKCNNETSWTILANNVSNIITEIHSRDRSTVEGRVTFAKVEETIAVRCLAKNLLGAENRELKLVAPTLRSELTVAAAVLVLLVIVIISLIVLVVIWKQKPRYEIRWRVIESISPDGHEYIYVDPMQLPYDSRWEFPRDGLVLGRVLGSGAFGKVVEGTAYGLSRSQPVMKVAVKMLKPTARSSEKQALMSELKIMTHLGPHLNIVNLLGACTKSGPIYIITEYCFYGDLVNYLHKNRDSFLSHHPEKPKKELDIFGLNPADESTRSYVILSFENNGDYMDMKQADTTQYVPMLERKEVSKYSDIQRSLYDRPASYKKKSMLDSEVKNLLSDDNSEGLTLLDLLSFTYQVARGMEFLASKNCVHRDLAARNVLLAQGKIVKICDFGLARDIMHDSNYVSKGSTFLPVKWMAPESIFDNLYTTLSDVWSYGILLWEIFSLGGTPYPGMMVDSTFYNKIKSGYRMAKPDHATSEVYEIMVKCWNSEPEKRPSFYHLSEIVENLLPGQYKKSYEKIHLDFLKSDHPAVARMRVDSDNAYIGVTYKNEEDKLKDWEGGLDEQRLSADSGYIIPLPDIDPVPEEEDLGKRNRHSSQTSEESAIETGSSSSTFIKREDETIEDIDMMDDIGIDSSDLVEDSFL

Key:
Details in all cases: dose 500.0 nM
[1] = target: Vascular endothelial growth factor receptor 1 (Homo sapiens) (UniProt P17948)
[2] = target: Proto-oncogene tyrosine-protein kinase Src (Homo sapiens) (UniProt P12931)
[3] = target: Vascular endothelial growth factor receptor 2 (Homo sapiens) (UniProt P35968)
[4] = target: Platelet-derived growth factor receptor beta (Homo sapiens) (UniProt P09619)
[5] = target: Insulin receptor (Homo sapiens) (UniProt P06213)
[6] = target: Mast/stem cell growth factor receptor Kit (Homo sapiens) (UniProt P10721)
[7] = target: ALK tyrosine kinase receptor (Homo sapiens) (UniProt Q9UM73)
[8] = target: Fibroblast growth factor receptor 1 (Homo sapiens) (UniProt P11362)
[9] = target: Platelet-derived growth factor receptor alpha (Homo sapiens) (UniProt P16234)

- inhibition [1]: Active
- inhibition [2]: Active
- inhibition [3]: Active
- inhibition [4]: Active
- inhibition [5]: Active
- inhibition [6]: Active
- inhibition [7]: Active
- inhibition [8]: Active
- inhibition [9]: Active
Structure (SMILES): Cc1cnc(Nc2ccc(OCCN3CCCC3)cc2)nc1Nc1ccc(C(=O)NO)cc1
